Counter-ions that a name gives are not always drawn.
Target: Human BACE-1 (Homo sapiens, UniProt P56817)
Experiment: Test 1: Inhibition of Human BACE-1
Assay type: biochemical

By UniProt entry, the sequences of proteins in these tests, tags left out. Residues count along the entry.
UniProt P56817, 46-457 limits assumed: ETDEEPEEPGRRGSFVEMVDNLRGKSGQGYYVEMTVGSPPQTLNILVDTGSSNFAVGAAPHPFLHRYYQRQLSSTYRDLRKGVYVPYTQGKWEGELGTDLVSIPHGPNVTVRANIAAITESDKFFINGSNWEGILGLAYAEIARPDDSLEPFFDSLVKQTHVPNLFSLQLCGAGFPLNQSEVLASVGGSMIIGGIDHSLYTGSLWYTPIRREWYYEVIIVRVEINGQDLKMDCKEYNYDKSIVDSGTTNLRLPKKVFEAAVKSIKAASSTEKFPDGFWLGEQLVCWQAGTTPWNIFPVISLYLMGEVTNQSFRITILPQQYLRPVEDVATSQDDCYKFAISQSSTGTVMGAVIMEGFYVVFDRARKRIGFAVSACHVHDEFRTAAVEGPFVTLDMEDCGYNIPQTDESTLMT

Compound | IC50
C[C@@]1(c2cc(NC(=O)c3ncc(OC(F)F)cc3Cl)ccc2F)CO[C@@](C)(C(F)(F)F)C(N)=N1 [Example 19, 3-Chloro-5-difluoromethoxy-pyridine-2-carboxylic acid [3-((3R,6R)-5-amino-3,6-dimethyl-6-trifluoromethyl-3,6-dihydro-2H-[1,4]oxazin-3-yl)-4-fluoro-phenyl]-amide hydrochloride] | 16 nM
C[C@@]1(c2cc(NC(=O)c3ncc(C#N)cc3N)ccc2F)CO[C@@](C)(C(F)(F)F)C(N)=N1 [Example 26, 3-Amino-5-cyano-pyridine-2-carboxylic acid [3-((3R,6R)-5-amino-3,6-dimethyl-6-trifluoromethyl-3,6-dihydro-2H-[1,4]oxazin-3-yl)-4-fluoro-phenyl]-amide] | 5 nM
